The list shows a part of the results, in another mix than the full data. Calls of active or inactive are those of the source.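 How the source made its calls: active means mean replicate inhibition of at least 30%, or all replicates individually reaching that 30% level; inactive means mean below 30% and not every replicate reaching it.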
target: Endoplasmic reticulum aminopeptidase 1 (Homo sapiens) (UniProt Q9NZ08); test: human ERAP1 aminopeptidase inhibitors, primary screen, biochemical, single point, plate reader (AID 652197); conditions: recombinant ERAP1, Leu-AMC fluorescence, 60 min; at 10.7 µM; hits give high values;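 further: 0% = neutral control wells and 100% = L-leucinethiol positive control wells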

The chains behind the UniProt entries cited, without tags or fusion partners.
UniProt Q9NZ08, whole entry: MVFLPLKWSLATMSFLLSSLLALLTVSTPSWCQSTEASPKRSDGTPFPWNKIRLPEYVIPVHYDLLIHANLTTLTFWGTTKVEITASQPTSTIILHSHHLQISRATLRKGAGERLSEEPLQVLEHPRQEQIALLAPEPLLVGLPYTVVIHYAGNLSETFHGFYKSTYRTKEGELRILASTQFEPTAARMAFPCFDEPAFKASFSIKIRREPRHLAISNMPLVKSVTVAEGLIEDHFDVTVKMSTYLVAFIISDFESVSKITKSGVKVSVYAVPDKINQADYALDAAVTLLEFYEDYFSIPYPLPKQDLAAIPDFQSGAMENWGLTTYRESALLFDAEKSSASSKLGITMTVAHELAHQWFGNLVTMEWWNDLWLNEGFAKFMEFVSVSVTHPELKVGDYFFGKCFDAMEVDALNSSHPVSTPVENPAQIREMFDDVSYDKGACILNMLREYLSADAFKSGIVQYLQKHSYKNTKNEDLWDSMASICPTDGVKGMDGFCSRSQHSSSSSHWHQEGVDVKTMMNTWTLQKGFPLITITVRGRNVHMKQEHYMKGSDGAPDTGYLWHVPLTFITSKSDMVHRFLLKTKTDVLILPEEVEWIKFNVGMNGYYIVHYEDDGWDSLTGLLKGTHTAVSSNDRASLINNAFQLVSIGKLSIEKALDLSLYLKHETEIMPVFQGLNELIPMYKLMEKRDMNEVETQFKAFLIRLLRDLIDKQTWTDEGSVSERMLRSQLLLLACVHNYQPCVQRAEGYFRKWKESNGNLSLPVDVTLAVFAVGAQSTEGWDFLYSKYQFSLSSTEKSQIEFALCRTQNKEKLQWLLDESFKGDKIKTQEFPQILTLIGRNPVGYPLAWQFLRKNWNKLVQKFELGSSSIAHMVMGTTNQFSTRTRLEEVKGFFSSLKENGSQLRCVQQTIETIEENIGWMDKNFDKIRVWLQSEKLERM

| Compound | inhibition |
| --- | --- |
| CCC(=O)N(c1ccccc1)C1(COC)CCN(CCn2nnn(CC)c2=O)CC1 | inactive: -1.97% |
| CCC(=O)N(c1ccccc1)C1(COC)CCN(CCc2cccs2)CC1 | inactive: -7.64% |
